Test system: male Sprague-Dawley rats
Assay: Gastrointestinal (GI) transit (charcoal meal) assays
Format: in vivo, rat
Conditions: antagonist SC 30 min before fentanyl 1 mg/kg SC; AG10-L2-Nal 35 µmol/kg (30 mg/kg); naloxegol dose not stated in text (30 and 100 mg/kg in Supp Fig. 10)

C=CCN1CC[C@]23c4c5ccc(O)c4O[C@H]2[C@@H](OCCOCCOCCOCCOCCOCCOCCOC)CC[C@@]3(O)[C@H]1C5 [Naloxegol, reference compound]
reversal of fentanyl-induced OIC: effective in reversing both analgesia and OIC

Reference: publication PMC9226319, “Peripherally restricted transthyretin-based delivery system for probes and therapeutics avoiding opioid-related side effects” (Nature Communications, 2022)
